Data published in ChEMBL document CHEMBL1152888, “Synthesis, pharmacological and in silico evaluation of 1-(4-di-hydroxy-3,5-dioxa-4-borabicyclo[4.4.0]deca-7,9,11-trien-9-yl)-2-(tert-butylamino)ethanol, a compound designed to act as a beta2 adrenoceptor agonist” (Eur J Med Chem, 2009).

Chains of the proteins cited; added tags and fusions are not shown.
UniProt Q8K4Z4, whole entry: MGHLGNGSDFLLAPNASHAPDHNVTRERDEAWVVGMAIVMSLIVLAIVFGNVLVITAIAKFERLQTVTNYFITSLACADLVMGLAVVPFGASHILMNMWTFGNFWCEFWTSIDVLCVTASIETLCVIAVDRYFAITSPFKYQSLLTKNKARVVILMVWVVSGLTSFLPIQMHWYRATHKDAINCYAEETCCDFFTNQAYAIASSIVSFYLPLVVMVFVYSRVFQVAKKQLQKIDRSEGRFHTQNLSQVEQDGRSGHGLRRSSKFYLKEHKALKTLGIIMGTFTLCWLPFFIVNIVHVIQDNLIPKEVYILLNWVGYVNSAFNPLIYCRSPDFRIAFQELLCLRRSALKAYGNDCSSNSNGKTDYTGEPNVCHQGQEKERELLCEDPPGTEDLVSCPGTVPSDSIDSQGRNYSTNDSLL

Columns and labels:
[1] = target: T1, Beta-2 adrenergic receptor (Cavia porcellus, UniProt Q8K4Z4); experiment: Agonist activity at adrenergic beta2 receptor in Hartley guinea pig tracheal ring assessed as bronchorelaxation activity against carbachol-induced contraction; assay type: functional, tissue-based, Trachea
[2] = target: T1, Beta-2 adrenergic receptor; experiment: Agonist activity at adrenergic beta2 receptor in Hartley guinea pig tracheal ring assessed as bronchorelaxation activity against histamine-induced contraction; assay type: functional, tissue-based, Trachea
[3] = target: T1, Beta-2 adrenergic receptor; experiment: Binding affinity to adrenergic beta2 receptor in Hartley guinea pig tracheal ring

EC50 [1]: 268 nM | EC50 [2]: 0.454 nM | Kd [3]: 1160 nM
SMILES: CC(C)(C)NCC(O)c1ccc(O)c(CO)c1 (stereo not drawn) [ALBUTEROL]
